Biological target: MAb 1226S31.3
Experiment: inhibition enzyme immunoassay: inhibition of MAb binding to surface bound R-(-)-oxaprotiline-mucin conjugate
Design: species or system mouse
Details: therapeutic drugs and biogenic amines, 1 µM-150 pM, preincubated overnight

Structure (SMILES) | IC50
NC(=O)N1c2ccccc2C=Cc2ccccc21 [Carbamazepine, 5H-dibenzo[b,f]azepine-5-carboxamide] | > 1000 nM
CNC1=Nc2ccc(Cl)cc2C(c2ccccc2)=[N+]([O-])C1 [Chlordiazepoxide, 7-chloro-N-methyl-5-phenyl-3H-1,4-benzodi-azepine-2-amine-4-oxide] | > 1000 nM
